Reference: paper PMC6370856, “Peptidyl prolyl cis/trans isomerase activity on the cell surface correlates with extracellular matrix development” (Communications Biology, 2019)

By UniProt entry, the sequences of proteins in these tests, tags left out. Chains listed by the source or under a name are the forms on record and can include a tag or linker.
UniProt Q13526, with tags, fused parts or gaps: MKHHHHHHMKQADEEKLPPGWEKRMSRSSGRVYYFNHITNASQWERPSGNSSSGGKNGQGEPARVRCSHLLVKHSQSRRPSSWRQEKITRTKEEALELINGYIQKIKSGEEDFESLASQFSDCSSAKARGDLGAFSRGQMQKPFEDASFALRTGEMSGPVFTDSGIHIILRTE

Target: T1, Pin1 (Homo sapiens, UniProt Q13526)
T1 construct: host or cells: Escherichia coli BL21 (DE3)
Experiment: Liquid chromatography-based protease-coupled PPIase activity assay, Pin1 (nagarse)
Format: biochemical
Details: 25 nM Pin1 + 50 mM PO4-
Source text: A small gap was opened on

## O=P(O)(O)O [PO4-, inorganic phosphate, reference compound]
  Pin catalyzing cis to trans isomerization rate k, Exp. 2: 0.00215 s⁻¹
